Drawing on patent publication US7544689B2, “Purine derivatives” (Cyclacel Limited, priority 2002, dated 2009), this text covers IC50 for 1 compound.

By UniProt entry, the sequences of proteins in these tests, tags left out.
UniProt P28482, whole entry: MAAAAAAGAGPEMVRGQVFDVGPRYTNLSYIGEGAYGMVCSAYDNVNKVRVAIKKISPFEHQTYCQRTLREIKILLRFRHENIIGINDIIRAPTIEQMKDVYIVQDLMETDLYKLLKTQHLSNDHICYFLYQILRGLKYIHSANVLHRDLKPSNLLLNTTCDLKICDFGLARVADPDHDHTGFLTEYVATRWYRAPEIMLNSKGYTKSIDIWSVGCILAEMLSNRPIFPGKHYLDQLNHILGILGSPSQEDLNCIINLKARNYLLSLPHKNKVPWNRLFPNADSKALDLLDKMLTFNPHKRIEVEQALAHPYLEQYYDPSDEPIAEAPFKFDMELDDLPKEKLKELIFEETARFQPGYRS

Where only a bound is given, the exact number is not on record here.

The target in one experiment is ERK2 (Homo sapiens, UniProt P28482). Briefly: Kinase assay, ERK-2 inhibition. The experiment is classed as biochemical. The settings on record: read-out: Kinase inhibition ERK2 IC50.
In experiment [1] the target is cyclic AMP-dependent kinase (PKA) catalytic subunit (Homo sapiens, UniProt P17612). Briefly: Kinase assay, PKA inhibition. In kind it is biochemical. The settings on record: read-out: Kinase inhibition PKA IC50.
Experiment [2] has as its system Human tumour cell lines: A549, HT29, Saos-2. Briefly: 72-h MTT cytotoxicity assay. The experiment is classed as cell-based. The settings on record: read-out: In vitro anti-proliferative activity (72 h MTT IC50).

For `CC[C@H](Nc1nc(NCc2ccccn2)c2ncn(C(C)C)c2n1)C(C)(C)O`, the IC50 on ERK2 was 59 µM; in experiment [1], more than 200 µM; in experiment [2] it was 24 µM.
